According to US8664225B2, “1-[2-(2,4-dimethylphenylsulfanyl)-phenyl] piperazine as a compound with combined serotonin reuptake, 5-HT3 and 5-HT1A activity for the treatment of pain or residual symptoms in depression relating to sleep and cognition” (H. Lundbeck A/S, priority 2007, dated 2014):

Assay: Solubility in water

solubility in water: ~700 µg/mL
Substance: 1-[2-(2,4-Dimethylphenylsulfanyl)-phenyl]piperazine meso-tartaric acid [meso-tartrate]
